This is a selection: effects in other tests are not listed, and their absence says nothing.
Tested on: arterial pressure
Assay: Antihypertensive action in hypertensive rats (OKAMOTO and AOKI), intragastric
Conditions: conclusion in words

With `CCOC(=O)N(c1ccccc1)C1CCN(CCCC(=O)c2ccc(F)cc2)[C@@H]2CCCC[C@@H]12` (stereo partly shown) the antihypertensive action was “powerful antihypertensive action”.

Reference: patent publication US4173636A, “Decahydroquinolines, pharmaceutical compositions and methods of use” (Labaz, priority 1975, dated 1979)
